Series [1] deals with isolated rabbit hearts. Put plainly: coronary vasodilator effect: coronary flow, isolated heart (Langendorff). As to conditions: 5·10^-6 g/lt. How it is done: The cardiokinetic effect on isolated heart was also investigated as follows. Rabbit hearts isolated by the Langendorff method were perfused with oxygenized ringer solution at 38.2° C. The isometric contractions, electrocardiogram and coronary flow were recorded using a "Battaglia-Rangoni" polygraph. By removing the oxygen from the perfusion fluid, metabolic damage was induced in the cardia muscle, up to an 80% reduction in the cardiac contractile force.
Under these conditions of prolonged anoxia the aerobic glycolysis of the myocardium is slowed down, accompanied by the storage of acid catabolites due to both the accumulation of pyruvic acid and its conversion to lactic acid which cannot be utilized because of the depression of pyridine enzymes, such as LDH (lactodehydrogenase). This has repercussions on the anaerobic glycolysis affecting an ever increasing number of enzymes, accompanied by a progressive and increasingly critical exhaustion of the myocardium. Thus a whole series of cardiac muscle fatigue levels occurs which can be observed by the behavior of the examined parameters, namely the contractile force, coronary flow, heart rate and cardiac rhythm. As soon as the contractile force was reduced by 80%, the perfusion fluid was once again oxygenized either without adding other compounds (controls) or with the addition of the compounds under examination. […]

Series [2] concerns mice. The experiment in a line: in vivo. The conditions noted are these: mouse, iv. The text has this: (§1) The tolerance of acetyl-d,l-carnitine and of the other aforementioned acyl derivatives of the formula (I), as well as their salts were investigated by comparing the LD50 obtained by administering the compounds intravenously in mice with the LD50 obtained under the same experimental conditions by intravenous injection of d,l-carnitine.

Series [3] is described as follows: in vivo. As to conditions: mouse, iv.
Source text: as §1

In the case of `CCCC(=O)OC(CC(=O)[O-])C[N+](C)(C)C` (racemic) [butyryl-d,l-carnitine], in series [1], the “Coronary flow, Mean ± S.E.” value is on record as 74.21 ± 8.78%. In addition, in series [2], the tolerance result was “better tolerance properties”. Also, the LD50 in series [3] is roughly 742 mg/kg. For the compound `CCCCCC(=O)OC(CC(=O)[O-])C[N+](C)(C)C` (racemic) [hexanoyl-d,l-carnitine], the 50% lethal dose (LD50) in series [3] is roughly 695 mg/kg. The same measure, in the same setting: next, `CCCCCCCC(=O)OC(CC(=O)[O-])C[N+](C)(C)C` (racemic) [octanoyl-d,l-carnitine]: roughly 630 mg/kg. As to `CCC(=O)OC(CC(=O)[O-])C[N+](C)(C)C` (racemic) [propionyl-d,l-carnitine], the tolerance entry in series [2] was “better tolerance properties”. The LD50 in series [3] was roughly 761 mg/kg.

(Values after patent publication US4194006A, “Therapeutic application of acetyl-d,l-carnitine and other acyl derivatives of d,l-carnitine” (priority 1977, dated 1980).)
